Source: patent US12583836B2 (Anaxis Pharma Pty Ltd, priority 2020, dated 2026)

Sequences of proteins named here, by UniProt entry; tags and fusion partners are left off. A change or cut given only in a name is not applied to a line headed by its entry.
UniProt Q9Y572: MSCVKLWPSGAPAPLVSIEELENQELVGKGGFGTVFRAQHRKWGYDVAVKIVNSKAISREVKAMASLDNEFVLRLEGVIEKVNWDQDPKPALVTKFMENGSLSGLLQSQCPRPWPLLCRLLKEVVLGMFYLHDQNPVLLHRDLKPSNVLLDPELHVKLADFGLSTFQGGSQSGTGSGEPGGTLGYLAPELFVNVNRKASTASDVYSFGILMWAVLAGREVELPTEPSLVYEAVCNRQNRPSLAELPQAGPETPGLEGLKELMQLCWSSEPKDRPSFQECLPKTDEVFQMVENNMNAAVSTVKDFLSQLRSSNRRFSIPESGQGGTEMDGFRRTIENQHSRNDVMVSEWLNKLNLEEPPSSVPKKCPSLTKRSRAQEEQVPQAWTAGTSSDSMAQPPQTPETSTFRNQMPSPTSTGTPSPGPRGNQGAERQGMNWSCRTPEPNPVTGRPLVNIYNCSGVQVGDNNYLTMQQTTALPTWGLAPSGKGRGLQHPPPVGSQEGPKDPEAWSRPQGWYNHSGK

biological target: T1, RIP3 (Homo sapiens, UniProt Q9Y572); test: KINOMEscan binding assay, RIP3; conditions: equilibrium dissociation constant, class symbols
T1 construct: purchased DiscoverX (KINOMEscan service); host or cells: E. coli BL21-derived (T7 phage) or HEK293

| SMILES | Kd [µM] |
| --- | --- |
| CCS(=O)(=O)Nc1ccc(-c2n[nH]c(Nc3cccnc3)c2C(N)=O)cc1OCc1ccc(F)cc1 [Compound 6, 3-(4-(ethylsulfonamido)-3-((4-fluorobenzyl)oxy)phenyl) 5-(pyridin-3-ylamino)-1H pyrazole-4-carboxamide] | > 30 |
| CCS(=O)(=O)Nc1ccc(-c2n[nH]c(Nc3cccc(C(F)(F)F)n3)c2C(N)=O)cc1OCc1ccc(F)cc1 [Compound 8, 3-(4-(ethylsulfonamido)-3-((4-fluorobenzyl)oxy)phenyl)-5-((6-(trifluoromethyl)pyridin-2-yl)amino)-1H-pyrazole-4-carboxamide] | > 30 |
| CCS(=O)(=O)Nc1ccc(-c2n[nH]c(Nc3cnc(C(F)(F)F)cn3)c2C(N)=O)cc1OCc1ccc(F)cc1 [Compound 9, 3-(4-(ethylsulfonamido)-3-((4-fluorobenzyl)oxy)phenyl) 5-((5-(trifluoromethyl)pyrazin-2 yl)amino)-1H-pyrazole-4 carboxamide] | > 30 |
| CCS(=O)(=O)Nc1ccc(-c2n[nH]c(Nc3cccc(OC)n3)c2C(N)=O)cc1OCc1ccc(F)cc1 [Compound 11, 3-(4-(ethylsulfonamido)-3-((4-fluorobenzyl)oxy)phenyl) 5-((6-methoxypyridin-2-yl)amino)-1H-pyrazole-4 carboxamide] | > 30 |
| CCS(=O)(=O)Nc1ccc(-c2n[nH]c(Nc3cncc(OC)n3)c2C(N)=O)cc1OCc1ccc(F)cc1 [Compound 15, 3-(4-(ethylsulfonamido)-3-((4-fluorobenzyl)oxy)phenyl) 5-((6-methoxypyrazin-2-yl)amino)-1H-pyrazole-4 carboxamide] | > 30 |
| CCS(=O)(=O)Nc1ccc(-c2n[nH]c(Nc3cncc(C(F)(F)F)n3)c2C(N)=O)cc1OCc1ccc(F)cc1 [Compound 17, 3-(4-(ethylsulfonamido)-3-((4-fluorobenzyl)oxy)phenyl) 5-((6-(trifluoromethyl)pyrazin-2 yl)amino)-1H-pyrazole-4 carboxamide] | > 30 |
| CCS(=O)(=O)Nc1ccc(-c2n[nH]c(Nc3cnccn3)c2C(N)=O)cc1Oc1ccc(F)cc1 [Compound 19, 3-(4-(ethylsulfonamido)-3-(4-fluorophenoxy)phenyl)-5-(pyrazin-2-ylamino)-1H-pyrazole-4-carboxamide] | > 30 |
| CCS(=O)(=O)Nc1ccc(-c2n[nH]c(Nc3cnccn3)c2C(N)=O)cc1OCc1ccccc1 [Compound 25, 3-(3-(benzyloxy)-4-(ethylsulfonamido)phenyl)-5-(pyrazin-2-ylamino)-1H-pyrazole-4-carboxamide] | > 30 |
| CCS(=O)(=O)Nc1ccc(-c2n[nH]c(Nc3ccccn3)c2C(N)=O)cc1OCc1ccncc1 [Compound 27, 3-(4-(ethylsulfonamido)-3-(pyridin-4-ylmethoxy)phenyl)-5-(pyridin-2-ylamino)-1H-pyrazole-4-carboxamide] | > 30 |
| CCS(=O)(=O)Nc1ccc(-c2n[nH]c(Nc3ccccn3)c2C(N)=O)cc1OCc1cccnc1 [Compound 31, 3-(4-(ethylsulfonamido)-3-(pyridin-3-ylmethoxy)phenyl)-5-(pyridin-2-ylamino)-1H-pyrazole-4-carboxamide] | > 30 |
| CCS(=O)(=O)Nc1ccc(-c2n[nH]c(Nc3cccc(C(F)(F)F)n3)c2C(N)=O)cc1OCc1cccnc1 [Compound 33, 3-(4-(ethylsulfonamido)-3-(pyridin-3-ylmethoxy)phenyl)-5-((6-(trifluoromethyl)pyridin-2-yl)amino)-1H-pyrazole-4-carboxamide] | 1 to 30 |
| CCS(=O)(=O)Nc1ccc(-c2n[nH]c(Nc3cnc(C(C)C)cn3)c2C(N)=O)cc1OCc1ccc(F)cc1 [Compound 34, 3-(4-(ethylsulfonamido)-3-((4-fluorobenzyl)oxy)phenyl) 5-((5-isopropylpyrazin-2-yl)amino)-1H-pyrazole-4-carboxamide] | > 30 |
| CCS(=O)(=O)Nc1ccc(-c2n[nH]c(Nc3ccccn3)c2C(N)=O)cc1OCC1CCCC1 [Compound 36, 3-(3-(cyclopentylmethoxy)-4-(ethylsulfonamido)phenyl)-5-(pyridin-2-ylamino)-1H-pyrazole-4-carboxamide] | > 30 |
| CCS(=O)(=O)Nc1ccc(-c2n[nH]c(Nc3cncc(C(F)(F)F)n3)c2C(N)=O)cc1 [Compound 44, 3-(4-(ethylsulfonamido)phenyl)-5-((6-(trifluoromethyl)pyrazin-2-yl)amino)-1H-pyrazole-4-carboxamide] | > 30 |
| CCS(=O)(=O)Nc1ccc(-c2n[nH]c(Nc3cccc(C(F)(F)F)n3)c2C(N)=O)cc1OCc1ccccc1 [Compound 46, 3-(3-(benzyloxy)-4-(ethylsulfonamido)phenyl)-5-((6-(trifluoromethyl)pyridin-2-yl)amino)-1H-pyrazole-4-carboxamide] | > 30 |
| NC(=O)c1c(-c2ccc(NS(=O)(=O)C(F)F)cc2)n[nH]c1Nc1ccccn1 [Compound 48, 3-(4-((difluoromethyl)sulfonamido)phenyl)-5-(pyridin-2-ylamino)-1H-pyrazole-4-carboxamide] | > 30 |
| CN(C)CCS(=O)(=O)Nc1ccc(-c2n[nH]c(Nc3cccc(C(F)(F)F)n3)c2C(N)=O)cc1 [Compound 51, 3-(4-((2-(dimethylamino)ethyl)sulfonamido)phenyl)-5-((6-(trifluoromethyl)pyridin-2-yl)amino)-1H-pyrazole-4-carboxamide] | > 30 |
| NC(=O)c1c(-c2ccc(NS(=O)(=O)C(F)F)cc2)n[nH]c1Nc1cccc(C(F)(F)F)n1 [Compound 53, 3-(4-((difluoromethyl)sulfonamido)phenyl)-5-((6-(trifluoromethyl)pyridin-2-yl)amino)-1H-pyrazole-4-carboxamide] | 1 to 30 |
| NC(=O)c1c(-c2ccc(NS(=O)(=O)Cc3ccccc3Cl)cc2)n[nH]c1Nc1cccc(C(F)(F)F)n1 [Compound 58, 3-(4-(((2-chlorophenyl)methyl)sulfonamido)phenyl)-5-((6-(trifluoromethyl)pyridin-2-yl)amino)-1H-pyrazole-4-carboxamide] | 1 to 30 |
| NC(=O)c1c(-c2ccc(NS(=O)(=O)c3cccc(C(F)(F)F)c3)cc2)n[nH]c1Nc1cnccn1 [Compound 73, 5-(pyrazin-2-ylamino)-3-(4-((3-(trifluoromethyl)phenyl)sulfonamido)phenyl)-1H-pyrazole-4-carboxamide] | > 30 |
| NC(=O)c1c(-c2ccc(NS(=O)(=O)CC3CCC3)cc2)n[nH]c1Nc1cnccn1 [Compound 81, 3-(4-((cyclobutylmethyl)sulfonamido)phenyl)-5-(pyrazin-2-ylamino)-1H-pyrazole-4-carboxamide] | > 30 |
| CCS(=O)(=O)Nc1ccc(-c2n[nH]c(Nc3cncc(C)n3)c2C(N)=O)cc1 [Compound 84, 3-(4-(ethylsulfonamido)phenyl)-5-((6-methylpyrazin-2-yl)amino)-1H-pyrazole carboxamide] | 1 to 30 |
| CCS(=O)(=O)Nc1ccc(-c2n[nH]c(Nc3ccc4ccccc4c3)c2C(N)=O)cc1 [Compound 86, 3-(4-(ethylsulfonamido)phenyl)-5-(naphthalen-2-ylamino)-1H-pyrazole-4-carboxamide] | 1 to 30 |
| CCS(=O)(=O)Nc1ccc(-c2n[nH]c(Nc3ccn(C)n3)c2C(N)=O)cc1 [Compound 91, 3-(4-(ethylsulfonamido)phenyl)-5-((1-methyl-1H-pyrazol-3-yl)amino)-1H-pyrazole-4-carboxamide] | > 30 |

Other lines, results leading:

| Kd [µM] | SMILES |
| --- | --- |
| > 30 | CCS(=O)(=O)Nc1ccc(-c2n[nH]c(Nc3cnccn3)c2C(N)=O)cc1OCc1ccc(F)c(F)c1 [Compound 1, 3-(3-((3,4-difluorobenzyl)oxy)-4-(ethylsulfonamido)phenyl)-5-(pyrazin-2-ylamino)-1H-pyrazole-4-carboxamide] |
| > 30 | CCS(=O)(=O)Nc1ccc(-c2n[nH]c(Nc3cnc(C)cn3)c2C(N)=O)cc1OCc1ccc(F)cc1 [Compound 22, 3-(4-(ethylsulfonamido)-3-((4-fluorobenzyl)oxy)phenyl)-5-((5-methylpyrazin-2-yl)amino)-1H-pyrazole-4-carboxamide] |
| > 30 | NC(=O)c1c(-c2ccc(NS(=O)(=O)CCC(F)F)cc2)n[nH]c1Nc1cnccn1 [Compound 23, 3-(4-((3,3-difluoropropyl)sulfonamido)phenyl)-5-(pyrazin-2-ylamino)-1H-pyrazole-4-carboxamide] |
| > 30 | N#CCS(=O)(=O)Nc1ccc(-c2n[nH]c(Nc3cccc(C(F)(F)F)n3)c2C(N)=O)cc1 [Compound 29, 3-(4-((cyanomethyl)sulfonamido)phenyl)-5-((6-(trifluoromethyl)pyridin-2-yl)amino)-1H-pyrazole-4-carboxamide] |
| > 30 | CCS(=O)(=O)Nc1ccc(-c2n[nH]c(Nc3ccccn3)c2C(N)=O)cc1OCc1cccc(Cl)c1 [Compound 38, 3-(3-((3-chlorobenzyl)oxy)-4-(ethylsulfonamido)phenyl)-5-(pyridin-2-ylamino)-1H-pyrazole-4-carboxamide] |
| 1 to 30 | NC(=O)c1c(-c2ccc(NS(=O)(=O)Cc3ccc(F)cc3)cc2)n[nH]c1Nc1cccc(C(F)(F)F)n1 [Compound 55, 3-(4-(((4-fluorophenyl)methyl)sulfonamido)phenyl)-5-((6-(trifluoromethyl)pyridin-2-yl)amino)-1H-pyrazole-4-carboxamide] |
| > 30 | CCS(=O)(=O)Nc1ccc(-c2n[nH]c(Nc3cccnn3)c2C(N)=O)cc1 [Compound 64, 3-(4-ethanesulfonamidophenyl)-5-[(pyridazin-3-yl)amino]-1H-pyrazole-4-carboxamide] |
| 1 to 30 | CCS(=O)(=O)Nc1ccc(-c2n[nH]c(Nc3cnc(C(C)C)cn3)c2C(N)=O)cc1 [Compound 66, 3-(4-(ethylsulfonamido)phenyl)-5-((5-isopropylpyrazin-2-yl)amino)-1H-pyrazole-4-carboxamide] |
| > 30 | CC(C)(C)S(=O)(=O)Nc1ccc(-c2n[nH]c(Nc3cnccn3)c2C(N)=O)cc1 [Compound 69, 3-(4-((1,1-dimethylethyl)sulfonamido)phenyl)-5-(pyrazin-2-ylamino)-1H-pyrazole-4-carboxamide] |
| > 30 | NC(=O)c1c(-c2ccc(NS(=O)(=O)Cc3ccc(C(F)(F)F)cc3)cc2)n[nH]c1Nc1cnccn1 [Compound 76, 5-[(pyrazin-2-yl)amino]-3-(4-{[4-(trifluoromethyl)phenyl]methanesulfonamido}phenyl)-1H-pyrazole-4-carboxamide] |
